Measurements taken from PMC11680790, “Structural and functional determination of peptide versus small molecule ligand binding at the apelin receptor” (Nature Communications, 2024).

How the values were obtained:
[1] = target: T1, R/H168^4.64 variant apelin receptor (Homo sapiens, UniProt P35414, R168H); experiment: Saturation radioligand binding, CHO-K1 membranes, R/H168^4.64; conditions: 90 min, room temperature, pH 7.4
T1 construct: expressed in transfected cells; host or cells: CHO-K1, transient, pcDNA3.1
T1 sequence (P35414 1-380 R168H): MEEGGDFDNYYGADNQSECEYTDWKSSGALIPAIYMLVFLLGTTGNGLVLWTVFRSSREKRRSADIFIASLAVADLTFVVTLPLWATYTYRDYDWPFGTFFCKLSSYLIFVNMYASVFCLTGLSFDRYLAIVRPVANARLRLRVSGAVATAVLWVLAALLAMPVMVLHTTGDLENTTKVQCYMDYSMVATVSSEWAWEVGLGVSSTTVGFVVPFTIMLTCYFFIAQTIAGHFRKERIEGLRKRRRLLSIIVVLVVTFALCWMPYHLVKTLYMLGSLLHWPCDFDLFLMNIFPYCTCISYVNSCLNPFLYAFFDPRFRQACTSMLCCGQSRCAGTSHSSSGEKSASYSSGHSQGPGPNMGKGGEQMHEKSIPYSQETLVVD
Procedure: (§1) The radiolabel has a specific activity of 2200 Ci/mmol. Plastic-ware used in radioligand binding experiments was coated with Sigmacote, a siliconising reagent that forms a covalent film to reduce sticking of the radiolabel.
(§2) Membrane protein preparations were made by harvesting CHO-K1 cells transiently transfected with wild-type or variant apelin receptor construct into tubes. Tubes were spun at 1000 xg for 10 min at 4 °C to pellet cells, before resuspending and triturating in ice-cold TRIS wash buffer (50 mM TRIS-HCl in deionised water, pH balanced to 7.4 at room temperature) to induce complete hypotonic lysis of cells. Cells were spun a second time at 21,000 × g for 20 min at 4 °C, to obtain a crude membrane fraction. […] Protein concentration of cell membrane preparations was determined using a DC Protein Assay (Bio-Rad), as per the manufacturer’s instructions.
(§3) For binding experiments, membrane preparations were diluted in binding buffer (50 mM TRIS-HCl and 5 mM MgCl2, balanced to pH 7.4 at room temperature) to give a final protein concentration of 1 mg/mL. […] Radioactivity in pellets was counted using a Cobra II model 5003 gamma counter (Packard).
(§4) Saturation binding data were analysed using the EBDA and LIGAND components of the KELL (Kinetic, EBDA, Ligand, Lowry) software package (Biosoft)[58] to generate receptor affinity (KD) and receptor density (Bmax) values. […]

[2] = target: T2, V/L38^1.42 variant apelin receptor (Homo sapiens, UniProt P35414, V38L); experiment: Saturation radioligand binding, CHO-K1 membranes, V/L38^1.42; conditions: 90 min, room temperature, pH 7.4
T2 construct: expressed in transfected cells; host or cells: CHO-K1, transient, pcDNA3.1
T2 sequence (P35414 1-380 V38L): T1 sequence (P35414 1-380 R168H) with V38L, H168R
Procedure: as §1, §2, §3, §4

CCCC[C@H](NC(=O)[C@@H]1CCCN1C(=O)CNC(=O)[C@H](CCCCN)NC(=O)[C@H](Cc1c[nH]cn1)NC(=O)[C@H](CO)NC(=O)[C@H](CC(C)C)NC(=O)[C@H](CCCNC(=N)N)NC(=O)[C@@H]1CCCN1C(=O)[C@H](CCCNC(=N)N)NC(=O)[C@@H]1CCC(=O)N1)C(=O)N1CCC[C@H]1C(=O)N[C@@H](Cc1ccc(O)c(I)c1)C(=O)O [[^125I]-apelin-13]
KD [1]: NBD | KD [2]: NBD

Where a chain is given by its changes, count along the chain named.
